Measured values reported in patent US9382228B2 (priority 2013, dated 2016).

Sequences of proteins named here, by UniProt entry; tags and fusion partners are left off. A change or cut given only in a name is not applied to a line headed by its entry. A line that says so, or that is headed by a name, gives the form on record, which may keep a tag or linker.
UniProt P10721, with tags, fused parts or gaps: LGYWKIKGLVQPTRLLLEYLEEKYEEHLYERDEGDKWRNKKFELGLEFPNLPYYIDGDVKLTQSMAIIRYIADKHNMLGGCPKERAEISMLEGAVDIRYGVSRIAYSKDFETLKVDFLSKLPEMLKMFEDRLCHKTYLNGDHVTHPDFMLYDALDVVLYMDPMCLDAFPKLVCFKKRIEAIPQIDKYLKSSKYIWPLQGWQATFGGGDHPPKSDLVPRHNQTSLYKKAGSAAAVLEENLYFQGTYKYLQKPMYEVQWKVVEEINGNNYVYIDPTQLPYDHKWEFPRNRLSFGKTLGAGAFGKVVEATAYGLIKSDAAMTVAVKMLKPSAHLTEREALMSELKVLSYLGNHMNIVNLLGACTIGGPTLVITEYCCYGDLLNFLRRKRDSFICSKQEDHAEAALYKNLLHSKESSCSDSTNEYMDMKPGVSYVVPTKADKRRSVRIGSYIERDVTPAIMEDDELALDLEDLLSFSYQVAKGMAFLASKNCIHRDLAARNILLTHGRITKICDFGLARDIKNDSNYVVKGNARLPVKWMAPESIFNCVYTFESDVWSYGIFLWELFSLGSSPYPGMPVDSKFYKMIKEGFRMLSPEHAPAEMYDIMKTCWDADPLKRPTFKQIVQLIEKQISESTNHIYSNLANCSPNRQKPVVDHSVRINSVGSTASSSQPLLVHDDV
UniProt P09619: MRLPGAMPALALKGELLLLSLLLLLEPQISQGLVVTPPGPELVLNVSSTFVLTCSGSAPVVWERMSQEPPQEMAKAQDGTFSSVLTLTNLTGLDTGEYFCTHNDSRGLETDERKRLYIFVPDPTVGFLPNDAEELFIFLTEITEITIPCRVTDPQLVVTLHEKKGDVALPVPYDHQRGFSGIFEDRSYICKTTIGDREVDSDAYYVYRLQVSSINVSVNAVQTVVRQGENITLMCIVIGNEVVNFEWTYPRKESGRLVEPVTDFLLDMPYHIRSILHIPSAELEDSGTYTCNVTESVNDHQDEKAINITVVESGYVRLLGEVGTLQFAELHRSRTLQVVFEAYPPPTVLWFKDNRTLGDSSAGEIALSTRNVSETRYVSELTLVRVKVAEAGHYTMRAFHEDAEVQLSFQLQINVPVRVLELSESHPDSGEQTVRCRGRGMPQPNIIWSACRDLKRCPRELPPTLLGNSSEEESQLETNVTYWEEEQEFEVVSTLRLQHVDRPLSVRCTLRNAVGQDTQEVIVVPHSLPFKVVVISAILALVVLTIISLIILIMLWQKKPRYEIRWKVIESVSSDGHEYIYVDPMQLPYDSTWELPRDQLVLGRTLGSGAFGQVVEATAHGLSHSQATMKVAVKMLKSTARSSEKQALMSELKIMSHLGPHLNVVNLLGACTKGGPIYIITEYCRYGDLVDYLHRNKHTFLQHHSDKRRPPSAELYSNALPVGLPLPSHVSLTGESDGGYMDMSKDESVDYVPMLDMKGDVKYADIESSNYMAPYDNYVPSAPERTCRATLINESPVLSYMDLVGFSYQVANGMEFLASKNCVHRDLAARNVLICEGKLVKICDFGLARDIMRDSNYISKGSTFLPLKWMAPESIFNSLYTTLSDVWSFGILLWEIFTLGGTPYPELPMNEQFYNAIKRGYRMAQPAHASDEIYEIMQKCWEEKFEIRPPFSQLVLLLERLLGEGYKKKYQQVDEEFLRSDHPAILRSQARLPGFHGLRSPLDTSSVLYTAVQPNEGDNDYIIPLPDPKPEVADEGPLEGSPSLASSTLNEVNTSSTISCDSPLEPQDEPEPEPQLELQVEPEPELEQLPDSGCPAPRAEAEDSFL

What was measured:
M-NFS-60 cells = assay: cells; settings: 67 h, read-out: M-NFS-60 cell proliferation
[1] = molecular target: T1, unphosphorylated c-FMS kinase (uFMS, Seq. ID no. 1) (Homo sapiens, UniProt P07333); assay: biochemical; settings: IC50 (nM) uFMS, Table 3
T1 sequence (P07333 538-972): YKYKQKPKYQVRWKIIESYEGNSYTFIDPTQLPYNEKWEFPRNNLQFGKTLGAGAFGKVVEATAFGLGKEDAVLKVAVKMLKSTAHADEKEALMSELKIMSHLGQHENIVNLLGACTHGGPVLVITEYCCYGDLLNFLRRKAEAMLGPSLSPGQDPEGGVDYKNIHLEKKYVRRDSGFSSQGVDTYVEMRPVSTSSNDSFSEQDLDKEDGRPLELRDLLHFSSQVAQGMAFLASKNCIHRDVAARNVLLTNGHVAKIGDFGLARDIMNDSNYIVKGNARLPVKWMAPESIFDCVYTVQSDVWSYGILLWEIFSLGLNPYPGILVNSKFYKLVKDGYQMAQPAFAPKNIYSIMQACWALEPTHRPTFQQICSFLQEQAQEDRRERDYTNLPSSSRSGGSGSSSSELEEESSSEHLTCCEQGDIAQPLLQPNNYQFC

[2] = molecular target: unphosphorylated c-KIT kinase (uKIT, Seq. ID no. 2) (Homo sapiens, UniProt P10721); assay: biochemical
[3] = molecular target: unphosphorylated PDGFRβ kinase (uPDGFRβ, Seq. ID No. 3) (Homo sapiens, UniProt P09619); assay: biochemical
[4] = uKIT, enzymatic assay, ATP 2000 μM
[5] = uPDGFRb, enzymatic assay, ATP 500 μM

Cn1cc(-c2cc(Oc3ccc(NC(=O)NC(=O)C4(C)CC4)nc3)ccn2)cn1 [Example 52, 1-methyl-N-((5-((2-(1-methyl-1H-pyrazol-4-yl)pyridin-4-yl)oxy)pyridin-2-yl)carbamoyl)cyclopropanecarboxamide]
IC50 (M-NFS-60 cells): < 10 nM

COC1(C(=O)NC(=O)Nc2ccc(Oc3ccnc(-c4ccc(C5CCN(C)CC5)cc4)c3)c(C)n2)CC1 [Example 144, 1-methoxy-N-((6-methyl-5-((2-(4-(1-methylpiperidin-4-yl)phenyl)pyridin-4-yl)oxy)pyridin-2-yl)carbamoyl)cyclopropanecarboxamide]
IC50 (M-NFS-60 cells): < 10 nM

Cc1cc(-c2cc(Oc3ccc(NC(=O)NC(=O)C(C)(C)C)nc3C)ccn2)ccn1 [Example 56, N-((6-methyl-5-((2′-methyl-[2,4′-bipyridin]-4-yl)oxy)pyridin-2-yl)carbamoyl)pivalamide]
IC50 (M-NFS-60 cells): < 10 nM | IC50 [1]: 4 nM

Cn1cc(-c2cc(Oc3ccc(NC(=O)NC(=O)C4CC5CCC4O5)nc3)ccn2)cn1 (centres unmarked) [Example 111, N-((5-((2-(1-methyl-1H-pyrazol-4-yl)pyridin-4-yl)oxy)pyridin-2-yl)carbamoyl)-7-oxabicyclo[2.2.1]heptane-2-carboxamide]
IC50 (M-NFS-60 cells): < 10 nM

CC(C)C(=O)NC(=O)Nc1ccc(Oc2ccnc(-c3cnn(C)c3)c2)cn1 [Example 24, N-((5-((2-(1-methyl-1H-pyrazol-4-yl)pyridin-4-yl)oxy)pyridin-2-yl)carbamoyl)isobutyramide]
IC50 (M-NFS-60 cells): 10 to 100 nM

COC1(C(=O)NC(=O)Nc2ccc(Oc3ccnc(-c4cnn(C)c4)c3)c(C)n2)CCCC1 [Example 150, 1-methoxy-N-((6-methyl-5-((2-(1-methyl-1H-pyrazol-4-yl)pyridin-4-yl)oxy)pyridin-2-yl)carbamoyl)cyclopentanecarboxamide]
IC50 (M-NFS-60 cells): < 10 nM

Cc1cc(-c2cc(Oc3ccc(NC(=O)NC(=O)C4CC(C)(C)C4)nc3C)ccn2)on1 [Example 14, 3,3-dimethyl-N-((6-methyl-5-((2-(3-methylisoxazol-5-yl)pyridin-4-yl)oxy)pyridin-2-yl)carbamoyl)cyclobutanecarboxamide]
IC50 (M-NFS-60 cells): < 10 nM

Cc1nc(NC(=O)NC(=O)CCCOC(F)(F)F)ccc1Oc1ccnc(-c2cnn(C)c2)c1 [Example 59, N-((6-methyl-5-((2-(1-methyl-1H-pyrazol-4-yl)pyridin-4-yl)oxy)pyridin-2-yl)carbamoyl)-4-(trifluoromethoxy)butanamide]
IC50 (M-NFS-60 cells): 10 to 100 nM | IC50 [2, 4]: 100 to 1000 nM

Cc1ncc(-c2cc(Oc3ccc(NC(=O)NC(=O)C4(C)CC4)nc3)ccn2)s1 [Example 121, 1-methyl-N-((5-((2-(2-methylthiazol-5-yl)pyridin-4-yl)oxy)pyridin-2-yl)carbamoyl)cyclopropanecarboxamide]
IC50 (M-NFS-60 cells): 10 to 100 nM | IC50 [2, 4]: 100 to 1000 nM

Cc1cc(-c2cc(Oc3ccc(NC(=O)NC(=O)C(C)C)nc3C)ccn2)ccn1 [Example 79, N-((6-methyl-5-((2′-methyl-[2,4′-bipyridin]-4-yl)oxy)pyridin-2-yl)carbamoyl)isobutyramide]
IC50 (M-NFS-60 cells): 10 to 100 nM | IC50 [2, 4]: > 1000 nM | IC50 [3, 5]: > 1000 nM

Cc1ccc(-c2cc(Oc3ccc(NC(=O)NC(=O)C4(C)CC4)nc3)ccn2)cn1 [Example 114, 1-methyl-N-((5-((6′-methyl-[2,3′-bipyridin]-4-yl)oxy)pyridin-2-yl)carbamoyl)cyclopropanecarboxamide]
IC50 (M-NFS-60 cells): 10 to 100 nM | IC50 [2, 4]: 10 to 100 nM

Cc1nc(NC(=O)NC(=O)CC(C)(C)C(F)(F)F)ccc1Oc1ccnc(-c2cnn(C)c2)c1 [Example 47, 4,4,4-trifluoro-3,3-dimethyl-N-((6-methyl-5-((2-(1-methyl-1H-pyrazol-4-yl)pyridin-4-yl)oxy)pyridin-2-yl)carbamoyl)butanamide]
IC50 (M-NFS-60 cells): 10 to 100 nM | IC50 [2, 4]: < 10 nM | IC50 [3, 5]: 10 to 100 nM

COC1(C(=O)NC(=O)Nc2ccc(Oc3ccnc(-c4cnn(C)c4)c3)cn2)CCCC1 [Example 153, 1-methoxy-N-((5-((2-(1-methyl-1H-pyrazol-4-yl)pyridin-4-yl)oxy)pyridin-2-yl)carbamoyl)cyclopentanecarboxamide]
IC50 (M-NFS-60 cells): < 10 nM | IC50 [2, 4]: 10 to 100 nM | IC50 [3, 5]: 10 to 100 nM

CC(C)C(=O)NC(=O)Nc1ccc(Oc2ccnc(-c3cnn(C)c3)c2)c(C(F)(F)F)n1 [Example 82, N-((5-((2-(1-methyl-1H-pyrazol-4-yl)pyridin-4-yl)oxy)-6-(trifluoromethyl)pyridin-2-yl)carbamoyl)isobutyramide]
IC50 (M-NFS-60 cells): > 1000 nM | IC50 [2, 4]: > 1000 nM | IC50 [3, 5]: > 1000 nM

COC(C)(C)C(=O)NC(=O)Nc1ccc(Oc2ccnc(-c3cnn(C)c3)c2)cn1 [Example 55, 2-methoxy-2-methyl-N-((5-((2-(1-methyl-1H-pyrazol-4-yl)pyridin-4-yl)oxy)pyridin-2-yl)carbamoyl)propanamide]
IC50 (M-NFS-60 cells): < 10 nM | IC50 [1]: 5 nM | IC50 ([2]; IC50 (nM) uKIT, Table 3): 1300 nM | IC50 [2, 4]: > 1000 nM | IC50 ([3]; IC50 (nM) uPDGFRβ, Table 3): 1100 nM | IC50 [3, 5]: > 1000 nM

COCC(=O)NC(=O)Nc1ccc(Oc2ccnc(-c3cnn(C)c3)c2)cn1 [Example 21, 2-methoxy-N-((5-((2-(1-methyl-1H-pyrazol-4-yl)pyridin-4-yl)oxy)pyridin-2-yl)carbamoyl)acetamide]
IC50 (M-NFS-60 cells): 100 to 1000 nM | IC50 [3, 5]: > 1000 nM

Cc1cc(-c2cc(Oc3ccc(NC(=O)NC(=O)C(C)(C)C)nc3C)ccn2)on1 [Example 76, N-((6-methyl-5-((2-(3-methylisoxazol-5-yl)pyridin-4-yl)oxy)pyridin-2-yl)carbamoyl)pivalamide]
IC50 (M-NFS-60 cells): 10 to 100 nM

Cc1cn(-c2cc(Oc3ccc(NC(=O)NC(=O)C4(C)CCC4)nc3C)ccn2)cn1 [Example 147, 1-methyl-N-((6-methyl-5-((2-(4-methyl-1H-imidazol-1-yl)pyridin-4-yl)oxy)pyridin-2-yl)carbamoyl)cyclobutanecarboxamide]
IC50 (M-NFS-60 cells): 10 to 100 nM | IC50 [2, 4]: > 1000 nM | IC50 [3, 5]: > 1000 nM

Cc1ccc(-c2cc(Oc3ccc(NC(=O)NC(=O)C(C)(C)C)nc3C)ccn2)cn1 [Example 39, N-((6-methyl-5-((6′-methyl-[2,3′-bipyridin]-4-yl)oxy)pyridin-2-yl)carbamoyl)pivalamide]
IC50 (M-NFS-60 cells): 10 to 100 nM | IC50 [2, 4]: > 1000 nM | IC50 [3, 5]: > 1000 nM

CCC(=O)NC(=O)Nc1ccc(Oc2ccnc(-c3cnc(C)s3)c2)cn1 [Example 98, N-((5-((2-(2-methylthiazol-5-yl)pyridin-4-yl)oxy)pyridin-2-yl)carbamoyl)propionamide]
IC50 (M-NFS-60 cells): > 1000 nM | IC50 [2, 4]: > 1000 nM | IC50 [3, 5]: > 1000 nM
